Bioassay records from PubChem BioAssay.
TSG101-PTAP inh = blocks PTAP/TSG101 interaction to inhibit HIV-1 budding; Q99816; Fluorescence polarization, FITC-PTAP peptide / Tsg101 binding; Potency, µM (doses to about 115 µM), without a hit: at the highest dose activity change, negative = inhibition, hits mostly inhibitors; 340,000 tested, under 10 active; AID 493005; active = well fitted inhibition curve with a large enough effect in the main read-out, with a control signal flat, not every such curve was filed as active; inconclusive = small, poorly fitted or top-dose-only effect, or effect the other way, or a change in a side signal; inactive = no such curve, though single readings can be large or run the other way; note: potency is the fitted concentration of half-maximal effect; % of control where 0% means no effect
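Steps: Tsg101 binding domain dispensed (10 uM final), compounds pinned in DMSO, FITC-labeled PTAP-motif peptide added (50 nM final); after 20 min binding at room temperature, polarization measured.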
Glioma ERSR ind = ER stress response induction in glioma; Potency, µM, for inactives: at the highest dose activation, actives largely listed as activators; U87-MG GRP78 promoter luciferase reporter, 16 h; 420,000 compounds, 0.02% hits; AID 602332; note: potency is the fitted concentration of half-maximal effect; series mostly up to about 76 µM; % of control where 0% means no effect; nearly all actives have a fitted effect of over 35% in size
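ERSR induction read as luciferase luminescence (Bright-Glo, 10 min at room temperature) in stably transfected human U87-MG glioma cells exposed to compounds for 16 h, using GRP78 as sensor.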
A549 viability = A549 cytotoxicity, counter-screen for Nrf2 inhibitors. Potency, µM (top dose mostly 46 µM), inactives show at the top dose activity change, negative = cytotoxicity, hits mostly inhibitors. 390,000 compounds, 0.16% hits. A549 ARE-Fluc cells, CellTiter-Fluor viability, 18-24 h; note: potency is the fitted concentration of half-maximal effect; % is set by controls: 0 for no effect and ±100 for the full control effect
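A549 ARE_Fluc cells in 5% FBS OPTI-MEM were exposed to compounds in concentration-response for 18-24 h at 37 deg C. Viability was read by CellTiter-Fluor fluorescence (Ex 405/Em 525) after 30 min, before the luciferase read.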
Nrf2 inh = Nrf2 pathway inhibition | Potency, µM (titrated, usually from 46 µM), for the others: at the top dose activity change, negative = inhibition, usual class: inhibitors | A549 ARE-Fluc reporter, luciferase luminescence, 18-24 h | 360,000 compounds, 2.1% hits; note: potency is the fitted concentration of half-maximal effect; % is set by controls: 0 for no effect and ±100 for the full control effect; nearly all actives have a fitted effect of over 60% in size
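Reporter: ARE-Fluc in A549. Exposure: 18-24 h, 37 °C, 5% CO2, 5% FBS OPTI-MEM. Readouts: fluorescent cytotoxicity (CellTiter-Fluor), then luminescent Nrf2 signal after BugLite.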
Nrf2 ARE act = activators of Nrf2 (ARE) signaling; AREc32 ARE-luciferase reporter (MCF7-derived line), luminescence, 24 h; Potency, µM (titrated, usually from 46.1 µM), inactives show at the highest dose activation, usual class: activators; 410,000 compounds, 0.31% hits; note: potency is the fitted concentration of half-maximal effect; % of control where 0% means no effect; nearly all actives have a fitted effect of over 65% in size
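Each well held 1000 AREc32 cells, which were incubated with compound for 24 hr at 37 deg C after overnight attachment, and ARE reporter activity was quantified by firefly luciferase luminescence.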
miR-21 reporter = raises the signal of a miR-21 reporter | HeLa miR-21 FLuc reporter, luciferase, 48 h | Potency, µM (highest dose often 38.3 µM), for inactives: at the highest dose reporter change, positive = more light | 340,000 tested, under 10 active | AID 2288; active = well fitted rising curve with a large enough effect; inconclusive = small, poorly fitted or top-dose-only effect; inactive = no such curve, though single readings can be large or run the other way;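 also: % of control where 0% means no effect; miR-21 action dims this reporter so a rising signal means less miR-21 action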
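HeLa cells stably expressing CMV-driven firefly luciferase with a downstream miR-21 binding sequence, endogenously expressing miR-21, were treated with titrations (up to about 40uM final) for 48 hours at 37 degree Celsius. Luciferase luminescence was read after lysis.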
Starred values were filed as active, the others as inactive; ? = inconclusive; . = not tested or not shown. This is a sample that favours compounds with a hit; in the whole collection about 2.1% have one here. Unless noted, calls come from the whole dose curve; as a rule, active = well fitted curve in the direction sought with a large enough effect; inconclusive = small, poorly fitted or top-dose-only effect, or another doubt; inactive = no such curve, though single readings can be large; an effect the other way counts as inactive or inconclusive.

1) O=C(NCC1CCCO1)c1ccc(COc2ccc(Br)cc2)cc1 (stereo not given)
2) O=C(NCC1CCCO1)c1ccc([N+](=O)[O-])o1 (stereo not given)
3) COCCn1c(C)cc(C(=O)COC(=O)c2ccc([N+](=O)[O-])o2)c1C
4) Cc1cc(C(=O)COC(=O)c2ccc([N+](=O)[O-])o2)c(C)n1CC1CCCO1 (stereo not given)
5) O=C(Cc1ccc([N+](=O)[O-])cc1)NCC1CCCO1 (stereo not given)
6) CC(=O)Nc1ccccc1-c1nc(CNC(=O)c2cc(C)ccc2C)c(C)o1
7) CC(C)C(=O)Nc1cccc(-c2nc3ncccc3o2)c1
8) O=C(Nc1cccc(-c2nc3ncccc3o2)c1)c1ccc(-c2cccc(Cl)c2Cl)o1
9) Cc1ccccc1CN1CCN(CC(=O)NCCCN2CCN(c3ccc(F)cc3)CC2)C1=O
10) CCOc1cccc(CN2CCC(n3cc(C(=O)N4CCCCC4)nn3)CC2)c1O
assay / entry | 1 | 2 | 3 | 4 | 5 | 6 | 7 | 8 | 9 | 10
TSG101-PTAP inh | 0% | -3% | 4% | -2% | -3% | . | -3% | . | -3% | .
Glioma ERSR ind | -5% | ? | 2% | -1% | 0% | 2% | 5% | 1% | 0% | -1%
A549 viability | -3% | -7% | -4% | -2% | 4% | . | 5% | -6% | 0% | .
Nrf2 inh | 16µM* | 0% | 16% | ? | 10% | . | 10% | 5.8µM* | 12µM* | .
Nrf2 ARE act | 2% | 10µM* | ? | 16µM* | 0% | . | 5% | 0% | 14% | .
miR-21 reporter | 8% | 15% | 1% | 0% | -4% | . | -18% | -7% | 12% | .

11) C=C(C)c1cccc(C(C)(C)NC(=O)Nc2ccc(OC)nc2)c1
12) C=C(C)c1cccc(C(C)(C)NC(=O)Nc2nncs2)c1
13) C=C(C)c1cccc(C(C)(C)NC(=O)Nc2ccc(C)cn2)c1
14) C=C(C)c1cccc(C(C)(C)NC(=O)Nc2cc(C)ccn2)c1
15) CN(C)CCCNc1ncnc2ccc(-c3ccc4c(c3)OCO4)cc12
16) Cc1ccc(Cn2ncc3c4sc(C)cc4n(C)c3c2=O)cc1
17) Cc1cc2c(s1)c1cnn(Cc3ccc(S(C)(=O)=O)cc3)c(=O)c1n2C
18) CCCCOC(=O)c1[nH]c2c(c1C)C(=O)CC(c1cc(OC)c(OC)c(OC)c1)C2 (stereo not given)
19) C=CCOC(=O)c1[nH]c2c(c1C)C(=O)CC(c1cc(OC)c(OC)c(OC)c1)C2 (stereo not given)
20) C/C(=N\NC(=O)c1cc(-c2cccnc2)nc2ccccc12)c1ccc(O)cc1O
assay / entry | 11 | 12 | 13 | 14 | 15 | 16 | 17 | 18 | 19 | 20
TSG101-PTAP inh | -19% | -5% | -1% | -2% | . | . | . | -1% | -1% | -4%
Glioma ERSR ind | 1% | -3% | -3% | -1% | . | . | . | -5% | -2% | -4%
A549 viability | 12µM* | 3% | -7% | ? | 11% | -5% | -14% | -29% | -30% | ?
Nrf2 inh | ? | 5% | ? | 15µM* | ? | 5% | 21µM* | 13µM* | 10µM* | 15µM*
Nrf2 ARE act | -1% | 0% | 6% | 3% | . | . | . | 5% | 3% | 0%
miR-21 reporter | 0% | -2% | -19% | 7% | . | . | . | 27% | 19% | 22%

21) C/C(=N\NC(=O)c1cc(-c2cccc(OC(C)C)c2)nc2ccccc12)c1cccnc1
22) CC(C)C(NC(=O)c1ccccn1)c1nnc2n1CCN(Cc1ccc3ccccc3c1)CC2 (stereo not given)
23) O=C(CCl)Nc1ccc2c(c1)OCO2
24) COc1cc2c(cc1OC)CN(C(=O)c1ccc([N+](=O)[O-])o1)CC2
25) CCOC(=O)c1c(C)[nH]c(C(=O)N2CCc3cc(OC)c(OC)cc3C2)c1C
26) Cc1cnc(-n2ncc(C(=O)N(CCO)C(C)C)c2-c2cccs2)nc1-c1ccc(F)cc1
27) C/C(=N\Nc1nccnc1Cl)c1ccc(Br)cc1
assay / entry | 21 | 22 | 23 | 24 | 25 | 26 | 27
TSG101-PTAP inh | 1% | . | -2% | -7% | -1% | . | 1%
Glioma ERSR ind | -4% | -2% | -4% | ? | -6% | 2% | 2%
A549 viability | 7% | . | -3% | ? | ? | . | 0%
Nrf2 inh | -9% | . | -1% | 1% | 23µM* | . | 13%
Nrf2 ARE act | 0% | . | 14µM* | 13µM* | 4% | . | 11µM*
miR-21 reporter | 6% | . | ? | 12% | . | . | -47%

Some of the entries so far, with values under each structure:
Every second line gives: TSG101-PTAP inh, Glioma ERSR ind, A549 viability, Nrf2 inh, Nrf2 ARE act, miR-21 reporter
26. Cc1cnc(-n2ncc(C(=O)N(CCO)C(C)C)c2-c2cccs2)nc1-c1ccc(F)cc1
→ ., 2%, ., ., ., .
24. COc1cc2c(cc1OC)CN(C(=O)c1ccc([N+](=O)[O-])o1)CC2
→ -7%, ?, ?, 1%, 13µM*, 12%
27. C/C(=N\Nc1nccnc1Cl)c1ccc(Br)cc1
→ 1%, 2%, 0%, 13%, 11µM*, -47%
